# ChEMBL document CHEMBL1139224, “Discovery and metabolic stabilization of potent and selective 2-amino-N-(adamant-2-yl) acetamide 11beta-hydroxysteroid dehydrogenase type 1 inhibitors” (J Med Chem, 2007)
# By UniProt entry, the sequences of proteins in these tests, tags left out. Where a name states a change or a piece, a line headed by the entry shows the natural chain unless it says otherwise.
# UniProt P28845: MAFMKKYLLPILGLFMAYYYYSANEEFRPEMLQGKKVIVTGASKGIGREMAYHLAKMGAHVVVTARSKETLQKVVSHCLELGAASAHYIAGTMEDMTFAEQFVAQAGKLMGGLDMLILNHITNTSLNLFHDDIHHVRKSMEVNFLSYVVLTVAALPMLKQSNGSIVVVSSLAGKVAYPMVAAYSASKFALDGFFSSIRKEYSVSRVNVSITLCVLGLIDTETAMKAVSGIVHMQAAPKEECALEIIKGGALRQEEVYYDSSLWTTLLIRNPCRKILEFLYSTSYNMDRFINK
# UniProt P50172: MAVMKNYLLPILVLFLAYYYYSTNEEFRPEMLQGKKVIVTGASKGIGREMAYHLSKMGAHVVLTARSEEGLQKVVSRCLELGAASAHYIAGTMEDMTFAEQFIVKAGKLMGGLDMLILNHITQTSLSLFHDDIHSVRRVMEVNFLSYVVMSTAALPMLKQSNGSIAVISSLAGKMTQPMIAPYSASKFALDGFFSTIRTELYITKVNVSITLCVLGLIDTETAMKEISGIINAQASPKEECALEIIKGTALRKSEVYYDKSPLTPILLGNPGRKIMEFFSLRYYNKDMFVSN
# Tests used:
# [1] = target: T1, 11-beta-hydroxysteroid dehydrogenase 1 (Homo sapiens, UniProt P28845); experiment: Inhibition of human 11beta-HSD1 expressed in HEK293 cells by FPIA; assay type: cell-based
# [2] = target: 11-beta-hydroxysteroid dehydrogenase 1 (Mus musculus, UniProt P50172); experiment: Inhibition of mouse 11beta-HSD1 expressed in Escherichia coli by SPA
# [3] = target: T1, 11-beta-hydroxysteroid dehydrogenase 1; experiment: Inhibition of human 11beta-HSD1 expressed in Escherichia coli by SPA
compound,measurement,setting,value
CC(C)(C(=O)N[C@H]1C2CC3CC1C[C@](O)(C3)C2)N1CCN(c2ccc(C(F)(F)F)cn2)CC1,IC50,[1],46 nM
same,Ki,[2],8 nM
same,Ki,[3],8 nM
